In ChEMBL document CHEMBL3593206, “SAR Studies of Exosite-Binding Substrate-Selective Inhibitors of A Disintegrin And Metalloprotease 17 (ADAM17) and Application as Selective in Vitro Probes” (J Med Chem, 2015):

Experiments:
ADAM17 (Homo sapiens) = assay: Inhibition of ADAM17 in human SW480 cells assessed as inhibition of PMA-stimulated wild type PTK7 shedding at 25 to 100 uM after 16 hrs by Western blot analysis
[1] = target: Matrix metalloproteinase-14 (Homo sapiens, UniProt P50281); assay: Inhibition of MMP14 (unknown origin) using Mca-KLPGL-Dnp-AR as substrate at 100 uM preincubated for 30 mins followed by substrate addition measured after 1 hr by fluorescence assay relative to control
Outline: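 Inhibitor as 10-point 1:3 dilutions from 300 μM, 30 min at RT. Substrate added from a 30 μM 3× solution. Single fluorescence read (ex 324/em 393 nm) after 1 h at RT.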

With `CCC[C@H]1CNC(=O)C(=O)N1C[C@@H]1CCCN1C[C@@H](CC1CCCCC1)N1C[C@H](Cc2ccccc2)N(CCc2ccccc2)C(=O)C1=O` the inhibition (ADAM17 (Homo sapiens)) was 0% and the inhibition [1] was 0%.
